# Measured values: article PMC4932538, “Alkanediamide-Linked Bisbenzamidines Are Promising Antiparasitic Agents” (Pharmaceuticals, 2016)
# What was measured:
# [1] = test system: T. brucei; settings: ratio of the L6 cells IC50 to the T. brucei IC50
# [2] = test system: both strains of P. falciparum; assay: In vitro activity and selectivity, both strains of P. falciparum; assay type: cell-based, Plasmodium falciparum; settings: ratio of the L6 cells IC50 to the P. falciparum IC50
Structure (SMILES),selectivity index for T. brucei (SIT.b) [1],selectivity index for P. falciparum (SIP.f) [2]
N=C(N)c1ccc(NC(=O)CCCCC(=O)Nc2ccc(C(=N)N)cc2)cc1 [Compound 6],"> 50,000",–
N=C(N)c1ccc(NC(=O)CCCC(=O)Nc2ccc(C(=N)N)cc2)cc1 [Compound 5],–,"> 33,000"
